# Measured values reported in publication PMC4707509, “TSPO ligand residence time: a new parameter to predict compound neurosteroidogenic efficacy” (Scientific Reports, 2016).
# Target: T1, TSPO (Rattus norvegicus, UniProt P16257)
# T1 construct: Membranes from rat kidneys were prepared as described previously; from tissue; host or cells: rat kidney membranes
# Assay: Simplified (one-concentration) competition kinetic association assay
# Type: binding
# Details: unlabeled ligand at three-fold Ki only
# Experimental: The unlabeled TSPO ligand kinetic parameters were assessed using the theoretical model of Motulsky and Mahan[32]. Unlike methods in which one compound is pre-equilibrated with the receptor, this approach involves the simultaneous addition of both radioligand and competitor to receptor preparation, so that at t = 0 all receptors are unoccupied. […] The degree of bound to TSPO was assessed at multiple time points by filtration harvesting and liquid scintillation counting, as above described. […] For ‘simplified’ competition kinetic association assays, the experiments were performed using concentration of unlabeled TSPO ligands corresponding to three-fold their Ki.
# Association and dissociation rates for unlabeled TSPO ligands were calculated by fitting the data in the competition association model using the ‘kinetics of competitive binding’ assay, defining the amount of radioligand bound to receptor ([RL]) as a function of time[32]: […]
Structure (SMILES),koff [s⁻¹],kon [M⁻¹ s⁻¹]
CCCN(CCC)C(=O)C(=O)c1c(-c2ccccc2)[nH]c2ccccc12 [PIGA719],0.00157,132000
CCCCCCN(CCCCCC)C(=O)C(=O)c1c(-c2ccccc2)[nH]c2ccccc12 [PIGA720],0.00065,363000
CCN(Cc1ccccc1)C(=O)C(=O)c1c(-c2ccc(Cl)cc2)[nH]c2ccc(Cl)cc12 [PIGA823],0.000133,71700
CCCCCCN(CCCCCC)C(=O)C(=O)c1c(-c2ccc(C(=O)O)cc2)[nH]c2ccccc12 [PIGA1214],0.0005,1510
